The structures appear in SMILES notation.

Protein sequences, listed by entry. Tags and fused reporters are not part of them. Lines headed by an entry give the natural chain unless they say otherwise; changes in a name come on top.
UniProt Q06187: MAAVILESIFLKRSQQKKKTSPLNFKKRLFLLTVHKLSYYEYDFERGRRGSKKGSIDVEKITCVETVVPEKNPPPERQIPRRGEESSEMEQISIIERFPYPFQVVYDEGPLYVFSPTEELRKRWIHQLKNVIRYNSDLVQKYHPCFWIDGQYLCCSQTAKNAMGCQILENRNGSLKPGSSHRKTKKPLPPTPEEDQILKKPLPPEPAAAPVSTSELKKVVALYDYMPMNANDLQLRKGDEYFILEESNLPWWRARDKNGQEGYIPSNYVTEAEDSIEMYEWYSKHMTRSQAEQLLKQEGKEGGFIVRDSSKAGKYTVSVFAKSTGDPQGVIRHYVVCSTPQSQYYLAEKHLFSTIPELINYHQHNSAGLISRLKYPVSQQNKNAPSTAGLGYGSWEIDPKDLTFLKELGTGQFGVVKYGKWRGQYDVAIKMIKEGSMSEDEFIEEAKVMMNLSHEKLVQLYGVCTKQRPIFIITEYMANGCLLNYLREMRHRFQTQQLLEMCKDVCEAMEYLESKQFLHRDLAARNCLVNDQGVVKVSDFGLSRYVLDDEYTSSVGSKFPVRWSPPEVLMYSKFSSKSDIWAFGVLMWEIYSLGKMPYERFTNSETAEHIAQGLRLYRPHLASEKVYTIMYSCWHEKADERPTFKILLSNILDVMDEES

In this assay the target is BTK wild type (Homo sapiens (Human), UniProt Q06187). Put plainly: Inhibition assay of BTK kinase activity (HTRF). The format is biochemical. (In general: In TR-FRET formats the signal depends on donor and acceptor labels being close together.)

Regarding `C=CC(=O)N1CCC(n2nc(-c3ccc(Oc4c(F)c(F)cc(F)c4F)cc3F)c3c(N)ncnc32)C1` (stereo not drawn) [Compound 23, 1-(3-(4-amino-3-(2-fluoro-4-(2,3,5,6-tetrafluorophenoxy)phenyl)-1H-pyrazolo[3,4-d]pyrimidin-1-yl)pyrrolidin-1-yl)prop-2-en-1-one], the IC50 is 3 nM.

The compound `C=CC(=O)N1CC[C@@H](n2nc(-c3ccc(Oc4c(F)c(F)cc(F)c4F)cc3F)c3c(N)ncnc32)C1` [Compound 45, 1-((R)-3-(4-amino-3-(2-fluoro-4-(2,3,5,6-tetrafluorophenoxy)phenyl)-1H-pyrazolo[3,4-d]pyrimidin-1-yl)pyrrolidin-1-yl)prop-2-en-1-one] registered an IC50 of 0.5 nM.

`C=CC(=O)N1CC[C@@H](n2nc(-c3ccc(C(=O)c4cccc(F)c4)cc3F)c3c(N)ncnc32)C1` [Compound 73, 1-((R)-3-(4-amino-3-(2-fluoro-4-(3-fluorobenzoyl)phenyl)-1H-pyrazolo[3,4-d]pyrimidin-1-yl)pyrrolidin-1-yl)prop-2-en-1-one] displayed a 50% inhibitory concentration (IC50) of 6 nM.

One may read the IC50 as the concentration at which inhibition is half-maximal.
